An excerpt weighted towards active compounds, which were near 2.3% of everything screened.
Glioma ERSR ind – ER stress response induction in glioma | U87-MG GRP78 promoter luciferase reporter, 16 h | Potency, µM, for inactives: top-dose activation, hits mostly activators | AID 602332 | 0.02% of 420,000 active; note: potency is the fitted concentration of half-maximal effect; series mostly up to about 76 µM; % of control where 0% means no effect; nearly all actives have a fitted effect of over 35% in size
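Stably transfected U87-MG glioma cells carrying a GRP78-based luciferase sensor; 16 h compound incubation. Luminescence end-point read 10 min after Bright-Glo addition at room temperature.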
Mito fusion yeast – inhibitors of mitochondrial division or activators of mitochondrial fusion. S. cerevisiae fusion-defective mutant growth rescue, CellTiterGlo 48 h. 0.23% of 320,000 active. Potency, µM (highest dose often 46.1 µM), for the others: at the highest dose growth rescue (activation), actives largely listed as activators; note: potency is the fitted concentration of half-maximal effect; % of control where 0% means no effect; nearly all actives have a fitted effect of over 45% in size
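S. cerevisiae fusion-defective temperature-sensitive mutants (e.g. fzo1-1, mgm1-5) grown 48 h at 37C in YPEG (ethanol/glycerol non-fermentable) medium with 23 nl compound per well; growth rescue read as CellTiterGlo luminescence.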
A549 viability – counter-screen for Nrf2 inhibitors: cytotoxicity in A549 cells; A549 ARE-Fluc cells, CellTiter-Fluor viability, 18-24 h; Potency, µM (top dose mostly 46 µM), for the others: at the highest dose activity change, negative = cytotoxicity, usual class: inhibitors; 0.16% of 390,000 active; AID 504648; note: potency is the fitted concentration of half-maximal effect; % is set by controls: 0 for no effect and ±100 for the full control effect
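Cytotoxicity counterscreen: CellTiter-Fluor fluorescence was measured in A549 ARE_Fluc cells after 18-24 h of compound exposure in a concentration series. The subsequent BugLite luminescent read reports ARE-luciferase activity.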
miR-21 reporter – raises the signal of a miR-21 reporter | HeLa miR-21 FLuc reporter, luciferase, 48 h | Potency, µM (doses to about 38.3 µM), for the others: at the highest dose reporter change, positive = more light | 340,000 tested, under 10 active | AID 2288; active = well fitted rising curve with a large enough effect; inconclusive = small, poorly fitted or top-dose-only effect; inactive = no such curve, though single readings can be large or run the other way;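 also: % of control where 0% means no effect; miR-21 action dims this reporter so a rising signal means less miR-21 action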
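Compounds were titrated across several concentrations (up to approximately 40 uM) and incubated 48 hours with HeLa miR-21-FLuc reporter cells (miR-21 target sequence downstream of FLuc, endogenous miR-21). Readout was firefly luciferase luminescence after lytic detection reagent.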
Nrf2 inh – Nrf2 pathway inhibition; 2.1% of 360,000 active; A549 ARE-Fluc reporter, luciferase luminescence, 18-24 h; Potency, µM (doses to about 46 µM), inactives show at the top dose activity change, negative = inhibition, hits mostly inhibitors; note: potency is the fitted concentration of half-maximal effect; % is set by controls: 0 for no effect and ±100 for the full control effect; nearly all actives have a fitted effect of over 60% in size
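Two sequential reads on A549 ARE_Fluc cells exposed to compound for 18-24 h: a CellTiter-Fluor fluorescence read for viability, then a luciferase luminescence read for Nrf2/ARE activity.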
Nrf2 activator – Nrf2 pathway activation; 0.31% of 410,000 active; Potency, µM (top dose mostly 46.1 µM), without a hit: at the highest dose activation, hits mostly activators; AREc32 ARE-luciferase reporter (MCF7-derived line), luminescence, 24 h; note: potency is the fitted concentration of half-maximal effect; % of control where 0% means no effect; nearly all actives have a fitted effect of over 65% in size
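Reporter line AREc32 (ARE-Fluc), seeded overnight in OPTI-MEM with 5% FBS; compound pin-transferred, 24 hr at 37 deg C, 5% CO2; luminescent read-out.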
* hit, by the source's call. Unless noted, calls come from the whole dose curve; as a rule, active = well fitted curve in the direction sought with a large enough effect; inconclusive = small, poorly fitted or top-dose-only effect, or another doubt; inactive = no such curve, though single readings can be large; an effect the other way counts as inactive or inconclusive.

Results for COCCn1c(-c2ccc(SC)cc2)nc2c1c(=O)[nH]c(=O)n2CC(C)C ?
Glioma ERSR ind: 2%; Mito fusion yeast: -3%; A549 viability: -3%; miR-21 reporter: -13%; Nrf2 inh: -20%; Nrf2 activator: 5%

How did CC(C)Oc1ccc(S(=O)(=O)N2CCCCC2)cc1NC(=O)C1CCCC1 do in these assays?
Glioma ERSR ind: -3%; Mito fusion yeast: 9%; A549 viability: 5%; Nrf2 inh: -3%; Nrf2 activator: 0%

How did Cc1ccc(C)c(N2CCN(C(=O)c3ccc(CS(=O)Cc4ccc(Cl)cc4)o3)CC2)c1 (stereo not drawn) do in these assays?
Glioma ERSR ind: -7%; Mito fusion yeast: -9%; A549 viability: inconclusive; miR-21 reporter: 13%; Nrf2 inh: 21µM*; Nrf2 activator: 0%

How did Cc1ccc(Cl)cc1N1CCN(C(=O)c2ccc(CS(=O)Cc3ccc(Cl)cc3)o2)CC1 (stereo not drawn) do in these assays?
Glioma ERSR ind: -8%; Mito fusion yeast: -23%; A549 viability: -8%; miR-21 reporter: 5%; Nrf2 inh: inconclusive; Nrf2 activator: -1%

Results for O=c1cc(-c2ccccc2)oc2cccc(O)c12 ?
Glioma ERSR ind: 1%; A549 viability: 3%; Nrf2 inh: 4%; Nrf2 activator: inconclusive

How did O=c1cc(-c2cccc(Br)c2)oc2cccc(O)c12 do in these assays?
Glioma ERSR ind: 1%; Mito fusion yeast: -21%; A549 viability: -1%; miR-21 reporter: -3%; Nrf2 inh: 23%; Nrf2 activator: 2µM*

What do the screens show for `COc1cc2ccccc2cc1C(=O)N1CCCC1`?
Glioma ERSR ind: 3%; Mito fusion yeast: -3%; A549 viability: 1%; miR-21 reporter: 1%; Nrf2 inh: inconclusive; Nrf2 activator: 0%

What do the screens show for `COc1cc2ccccc2cc1C(=O)N1CC(C)CC(C)C1` (stereo not drawn)?
Glioma ERSR ind: 2%; Mito fusion yeast: 1%; A549 viability: -14%; miR-21 reporter: 5%; Nrf2 inh: 12µM*; Nrf2 activator: -1%

Results for Cc1cccc(C(=O)N2CCN(c3ncnc4c3cnn4-c3ccccc3)CC2)c1 ?
Glioma ERSR ind: -4%; Mito fusion yeast: 10%; A549 viability: -15%; miR-21 reporter: -1%; Nrf2 inh: 18µM*; Nrf2 activator: 3%

What do the screens show for `CC(=O)N1CCc2cc(S(=O)(=O)N3c4ccccc4CC3C)ccc21` (stereo not drawn)?
Glioma ERSR ind: -2%; Mito fusion yeast: -1%; A549 viability: -12%; miR-21 reporter: 18%; Nrf2 inh: 15µM*; Nrf2 activator: 0%

Results for COc1ccc(OCc2nc3ccccc3n2C(C)C)cc1 ?
Glioma ERSR ind: 0%; Mito fusion yeast: 24%; A549 viability: 0%; miR-21 reporter: -9%; Nrf2 inh: 23µM*; Nrf2 activator: 5%

What do the screens show for `CS(=O)(=O)c1ccc(S(=O)CC(=O)OCc2ccccc2)c([N+](=O)[O-])c1` (stereo not drawn)?
Glioma ERSR ind: -16%; Mito fusion yeast: 6%; A549 viability: inconclusive; miR-21 reporter: inconclusive; Nrf2 inh: 18µM*; Nrf2 activator: inconclusive

In the list so far, two have a furan ring, fused or not:
How did Cc1ccc(C)c(N2CCN(C(=O)c3ccc(CS(=O)Cc4ccc(Cl)cc4)o3)CC2)c1 (stereo not drawn) do in these assays?
Glioma ERSR ind: -7%; Mito fusion yeast: -9%; A549 viability: inconclusive; miR-21 reporter: 13%; Nrf2 inh: 21µM*; Nrf2 activator: 0%

How did Cc1ccc(Cl)cc1N1CCN(C(=O)c2ccc(CS(=O)Cc3ccc(Cl)cc3)o2)CC1 (stereo not drawn) do in these assays?
Glioma ERSR ind: -8%; Mito fusion yeast: -23%; A549 viability: -8%; miR-21 reporter: 5%; Nrf2 inh: inconclusive; Nrf2 activator: -1%

Following part:
How did CC1(C)N=C(SCC(=O)Nc2ccc(Cl)cc2)C(c2ccccc2)=N1 do in these assays?
Glioma ERSR ind: -13%; Mito fusion yeast: 6%; A549 viability: 0%; miR-21 reporter: 13%; Nrf2 inh: -12%; Nrf2 activator: 11%

How did CC1(C)N=C(SCC(=O)Nc2ccc(Cl)cc2)C(c2ccc(Cl)cc2)=N1 do in these assays?
Glioma ERSR ind: -3%; Mito fusion yeast: 0%; A549 viability: inconclusive; miR-21 reporter: 29%; Nrf2 inh: 26µM*; Nrf2 activator: 16%

Results for CC1(c2ccc(OCC#N)cc2)C=C(c2ccc(OCC#N)cc2)n2nc(C(F)(F)F)nc2N1 (stereo not drawn) ?
Glioma ERSR ind: -5%; Mito fusion yeast: 6%; A549 viability: inconclusive; miR-21 reporter: inconclusive; Nrf2 inh: 23µM*; Nrf2 activator: 11%

How did Cc1cc(Cl)ccc1OC(C)C(=O)N1CCCN(C(=O)C(C)Oc2ccc(Cl)cc2C)CC1 (stereo not drawn) do in these assays?
Glioma ERSR ind: -5%; Mito fusion yeast: inconclusive; A549 viability: inconclusive; miR-21 reporter: 25%; Nrf2 inh: 16µM*; Nrf2 activator: 5%

What do the screens show for `Cc1cc(Cl)ccc1OCC(=O)N1CCCN(C(=O)COc2ccc(Cl)cc2C)CC1`?
Glioma ERSR ind: -6%; Mito fusion yeast: 19%; A549 viability: inconclusive; miR-21 reporter: 10%; Nrf2 inh: inconclusive; Nrf2 activator: 5%

What do the screens show for `O=C1c2cccc3cccc(c23)C(=O)N1CCCN(C(=O)c1cccs1)c1cccc(F)c1`?
Glioma ERSR ind: 1%; Mito fusion yeast: 0%; A549 viability: 0%; miR-21 reporter: -8%; Nrf2 inh: inconclusive; Nrf2 activator: 3.2µM*

Results for CC(C)Cn1c(N)c(C(=O)COC(=O)C2=COCCO2)c(=O)n(C)c1=O ?
Glioma ERSR ind: -3%; Mito fusion yeast: -2%; A549 viability: 5%; miR-21 reporter: 0%; Nrf2 inh: -22%; Nrf2 activator: -1%

How did O=C(Nc1ccc(OC(F)(F)F)cc1)N1CCN(c2ccnc3cc(Cl)ccc23)CC1 do in these assays?
Glioma ERSR ind: -4%; Mito fusion yeast: inconclusive; A549 viability: inconclusive; miR-21 reporter: 25%; Nrf2 inh: 4.6µM*; Nrf2 activator: 0%

Results for CC(=O)c1ccc(N2CCN(c3ccnc4cc(Cl)ccc34)CC2)cc1 ?
Glioma ERSR ind: -2%; Mito fusion yeast: -3%; A549 viability: -1%; miR-21 reporter: 6%; Nrf2 inh: 1.6µM*; Nrf2 activator: 0%

Results for O=C(C1CCCCC1)N1CCN(c2ccnc3cc(Cl)ccc23)CC1 ?
Glioma ERSR ind: -9%; Mito fusion yeast: -2%; A549 viability: -4%; miR-21 reporter: inconclusive; Nrf2 inh: 21µM*; Nrf2 activator: 3%

How did O=S(=O)(c1cccc(Br)c1)N1CCN(c2ccnc3cc(Cl)ccc23)CC1 do in these assays?
Glioma ERSR ind: -4%; Mito fusion yeast: 0%; A549 viability: inconclusive; miR-21 reporter: 11%; Nrf2 inh: inconclusive; Nrf2 activator: 4%

What do the screens show for `N#Cc1cccc(S(=O)(=O)N2CCN(c3ccnc4cc(Cl)ccc34)CC2)c1`?
Glioma ERSR ind: -2%; Mito fusion yeast: 9%; A549 viability: -14%; miR-21 reporter: 8%; Nrf2 inh: 10µM*; Nrf2 activator: 0%
